In assay [1] the target is T1, Delta-aminolevulinic acid dehydratase (Wolbachia sp. subsp. Brugia malayi (strain TRS), UniProt Q5GSR3).
T1 sequence (Q5GSR3 whole entry): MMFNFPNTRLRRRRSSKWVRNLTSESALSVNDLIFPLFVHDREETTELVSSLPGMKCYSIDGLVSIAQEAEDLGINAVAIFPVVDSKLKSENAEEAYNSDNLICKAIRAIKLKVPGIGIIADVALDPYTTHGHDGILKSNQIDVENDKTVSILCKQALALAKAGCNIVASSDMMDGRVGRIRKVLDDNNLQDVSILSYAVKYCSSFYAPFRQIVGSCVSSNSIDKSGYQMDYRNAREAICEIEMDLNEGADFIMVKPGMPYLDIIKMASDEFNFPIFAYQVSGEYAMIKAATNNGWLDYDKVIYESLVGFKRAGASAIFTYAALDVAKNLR
Put plainly: Inhibition of C-terminal His-tagged Wolbachia PBGS using 5-ALA as substrate.

In assay [2] the target is T2, Delta-aminolevulinic acid dehydratase (Homo sapiens, UniProt P13716).
T2 sequence (P13716 whole entry): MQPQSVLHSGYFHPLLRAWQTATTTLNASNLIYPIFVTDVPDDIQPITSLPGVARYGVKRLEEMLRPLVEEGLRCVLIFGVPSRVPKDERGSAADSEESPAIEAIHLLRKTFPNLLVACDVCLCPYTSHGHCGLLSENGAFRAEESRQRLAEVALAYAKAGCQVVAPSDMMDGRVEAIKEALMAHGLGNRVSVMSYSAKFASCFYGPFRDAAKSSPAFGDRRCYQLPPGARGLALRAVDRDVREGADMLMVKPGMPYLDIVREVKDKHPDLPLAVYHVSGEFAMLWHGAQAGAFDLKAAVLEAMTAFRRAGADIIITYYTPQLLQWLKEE
Kind of assay: Inhibition of human PBGS using 5-ALA as substrate.

For assay [3], the system named is Toxoplasma gondii. Kind of assay: Stimulation of Toxoplasma gondii recombinant PBGS using 5-ALA as substrate at […].

With `Cn1cnc2cc(C(=O)O)ccc21`, the IC50 in assay [1] and in assay [2] was 500 µM throughout. Turning to `O=C(O)c1ccc2nc(CCNC(=O)c3cccs3)n(Cc3cccc(C(F)(F)F)c3)c2c1`, the Smax in assay [3] was 115%.
